# An excerpt weighted towards active compounds, which were near 1.1% of everything screened.
# p53 reactivator: re-activators of mutant p53 | H1299 p53-A138V BP100-luciferase reporter, luminescence, 24 h | Potency, µM (doses to about 92.2 µM), without a hit: top-dose activity change, positive = activation, usual class: activators | 320,000 tested, 0.063% active; also: potency is read from the fitted curve at half-maximal effect; % of control where 0% means no effect; nearly all actives have a fitted effect of over 45% in size
#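 p53-null H1299 cells stably carrying temperature-sensitive p53-A138V and a BP100-luciferase reporter were pinned with compounds (4-point, 1:5 series) and held 24 hrs at 37 deg C. Luminescence was read 10 min after detection reagent.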
# miR-21 reporter: raises the signal of a miR-21 reporter | Potency, µM (highest dose often 38.3 µM), without a hit: at the top dose reporter change, positive = more light | HeLa miR-21 FLuc reporter, luciferase, 48 h | 340,000 tested, under 10 active; active = well fitted rising curve with a large enough effect; inconclusive = small, poorly fitted or top-dose-only effect; inactive = no such curve, though single readings can be large or run the other way;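 further: % of control where 0% means no effect; miR-21 action dims this reporter so a rising signal means less miR-21 action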
#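 HeLa cells endogenously expressing miR-21, stably carrying CMV-driven firefly luciferase with a downstream miR-21 binding site, 2000 cells/well. Titrations up to approximately 40 uM, 48 hours; luciferase luminescence read.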
# BRCA1 expr up: increases BRCA1 expression; 380,000 tested, 1.1% active; Potency, µM (titrated, usually from 46.1 µM), for the others: at the highest dose activation, actives largely listed as activators; MCF7-BRCA1-FFLuc reporter, luminescence, 48 h; response scale: scaled: vehicle 0%, 10 µM genistein 100%; also: potency is read from the fitted curve at half-maximal effect; nearly all actives have a fitted effect of over 80% in size
#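 Activators of BRCA1 expression were detected as increased firefly luciferase luminescence in engineered MCF7 cells after 48 h compound incubation. Signals were scaled to genistein 10 microM as full activation.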
# Apoferritin bind: candidate novel general anesthetic via apoferritin binding; P02791; apoferritin/1-aminoanthracene competitive binding, fluorescence; Potency, µM (top dose mostly 77.5 µM), for inactives: at the top dose activity change, negative = displacement, actives largely listed as inhibitors; 350,000 tested, 0.074% active; AID 485281; also: potency is read from the fitted curve at half-maximal effect; % is scaled to controls: 0 for no effect and ±100 for the full control effect; nearly all actives have a fitted effect of over 20% in size
#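 Concentration-response curves derived by four-parameter Hill fitting of normalized fluorescence, where compounds displaced 1-AMA from 10 uM horse apoferritin following a brief 10 min room-temperature incubation; propofol titration acted as positive control.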
# An asterisk follows results filed as active; ? = inconclusive; / = no result given. Calls follow the shape of the dose curve; as a rule, active = well fitted curve in the direction sought with a large enough effect; inconclusive = small, poorly fitted or top-dose-only effect, or another doubt; inactive = no such curve, though single readings can be large; an effect the other way counts as inactive or inconclusive.
# Screens by letter: A = p53 reactivator; B = miR-21 reporter; C = BRCA1 expr up; D = Apoferritin bind
SMILES: CC(=O)Nc1ccnn1C1CCN(C(=O)c2cccc(C)c2C)CC1
  A = 4%; B = -1%; C = 0%; D = -5%

SMILES: CC(C)CN(C(=O)CCNC(=O)c1ccccc1Cl)C1CCS(=O)(=O)C1 (stereo unspecified)
  A = 14%; B = /; C = 2%; D = /

SMILES: Cc1ccc(C)c(NC(=O)CSc2nc3nccnc3c(=O)n2CCc2c[nH]c3ccccc23)c1
  A = /; B = -2%; C = /; D = -6%

SMILES: CCN(CC)C(=O)Cn1c(=O)n(-c2ccc(Cl)cc2)c(=O)c2c3c(sc21)CCC3
  A = /; B = -4%; C = /; D = -8%

SMILES: Nc1cc(C(=O)OCC(=O)N2CCOCC2)ccc1Cl
  A = ?; B = -32%; C = 70%; D = 9%

SMILES: CC1CCCCN1C(=O)COC(=O)c1ccc(N2CCCC2=O)cc1 (stereo unspecified)
  A = 0%; B = /; C = 34%; D = /

SMILES: Nc1ccc(C(=O)OCC(=O)N2CCOCC2)cc1[N+](=O)[O-]
  A = ?; B = -51%; C = 11µM*; D = -15%

SMILES: CC1CCCCN1C(=O)COC(=O)c1cc(Cl)c2c(c1)OCO2 (stereo unspecified)
  A = 18%; B = /; C = 11µM*; D = /

SMILES: CC1CCN(C(=O)COC(=O)c2ccc3c(c2)OCO3)CC1
  A = 13%; B = -53%; C = 2.5µM*; D = -22%

SMILES: COc1cccc(NC(=O)CSC2=Nc3ccccc3C3=NC(CC(=O)NCc4ccc5c(c4)OCO5)C(=O)N23)c1 (stereo unspecified)
  A = /; B = 11%; C = /; D = -1%

SMILES: COn1c(-c2ccc(Cl)cc2)nc2ncccc21
  A = 13%; B = -48%; C = 7.1µM*; D = 3%

SMILES: COCCNC(=O)c1ccccc1NC(=O)c1nsc2ccccc12
  A = /; B = 4%; C = /; D = 56%

SMILES: Cc1cc(C(=O)N(C)C2CCCCC2)no1
  A = -2%; B = -2%; C = -17%; D = -9%

SMILES: CN(C(=O)c1cc(-c2ccccc2)on1)C1CCCCC1
  A = ?; B = -80%; C = 1.6µM*; D = 2%

SMILES: COc1cccc(OCc2cc(C(=O)N(C)C3CCCCC3)no2)c1
  A = /; B = /; C = 11µM*; D = /

# In another format: entries from further up.
CC(C)CN(C(=O)CCNC(=O)c1ccccc1Cl)C1CCS(=O)(=O)C1 (stereo unspecified)
  p53 reactivator: 14%
  miR-21 reporter: /
  BRCA1 expr up: 2%
  Apoferritin bind: /

Cc1ccc(C)c(NC(=O)CSc2nc3nccnc3c(=O)n2CCc2c[nH]c3ccccc23)c1
  p53 reactivator: /
  miR-21 reporter: -2%
  BRCA1 expr up: /
  Apoferritin bind: -6%

CCN(CC)C(=O)Cn1c(=O)n(-c2ccc(Cl)cc2)c(=O)c2c3c(sc21)CCC3
  p53 reactivator: /
  miR-21 reporter: -4%
  BRCA1 expr up: /
  Apoferritin bind: -8%

# Going on with the list:
# Screens by letter: A = p53 reactivator; B = miR-21 reporter; C = BRCA1 expr up; D = Apoferritin bind
SMILES: COc1cccc(OCc2cc(C(=O)N(C)CCC3CCCCO3)no2)c1 (stereo unspecified)
  A = -9%; B = -31%; C = 44%; D = -18%

SMILES: CCCOc1cccc(C(=O)Nc2cccc(-c3nc4ncccc4o3)c2C)c1
  A = /; B = 4%; C = 3%; D = 3%

SMILES: CCCn1c(=O)c2c(nc3n2CCN3c2ccc(C)cc2)n(C)c1=O
  A = /; B = -9%; C = /; D = -15%

SMILES: CCOC(=O)c1cc(-c2ccc(N)cc2)sc1N
  A = 9%; B = -37%; C = ?; D = 8%

SMILES: CCOC(=O)c1sc(-c2ccc(Br)cc2)cc1N
  A = 10%; B = -53%; C = 7.1µM*; D = -2%

SMILES: Cc1ccc(CSc2ncn(-c3ccccc3)n2)cc1
  A = 27%; B = -39%; C = 11µM*; D = ?

SMILES: COc1ccc(C(=O)Cc2cc(OC)c(OC)cc2[N+](=O)[O-])cc1
  A = 7%; B = -30%; C = 11µM*; D = -14%

SMILES: O=C(Cc1cccs1)Nc1ccc(-c2nc3ccccc3[nH]2)cc1
  A = 19%; B = -45%; C = 5.6µM*; D = -12%

SMILES: O=C(CN1CCOCC1)Nc1ccc(-c2nc3ccccc3[nH]2)cc1
  A = 16%; B = -39%; C = 11µM*; D = -10%

SMILES: CC(C)c1ccc(C(=O)CSc2ncn[nH]2)cc1
  A = ?; B = -34%; C = 14µM*; D = ?

SMILES: O=C(CSc1ncn[nH]1)c1ccc2c(c1)OCCO2
  A = 27%; B = -35%; C = 73%; D = -7%

SMILES: COc1ccc(-c2cn(Cc3ccc(C(N)=O)cc3)c(-c3ccncc3)n2)cc1
  A = ?; B = /; C = 4.5µM*; D = /

SMILES: CCCNC(=O)c1ccc(Cn2cc(C(F)(F)F)ccc2=O)cc1
  A = 1%; B = -3%; C = 0%; D = -1%

SMILES: CCCNC(=O)c1ccc(Cn2cc(-c3ccc(OC)cc3)nc2C(C)N)cc1 (stereo unspecified)
  A = 18%; B = /; C = 11µM*; D = /

SMILES: OCc1cccc[n+]1Cc1ccccc1
  A = /; B = /; C = 10%; D = /

# Next structures:
# Screens by letter: A = p53 reactivator; B = miR-21 reporter; C = BRCA1 expr up; D = Apoferritin bind
SMILES: Cc1ccc(-c2c(C(=O)N3CCN(c4cccc(C)c4)C(C)C3)oc(=O)c3ccccc23)cc1 (stereo unspecified)
  A = /; B = ?; C = -51%; D = -14%

SMILES: CCc1ccc(NC(=O)Cn2c(=O)n(Cc3ccco3)c(=O)c3cccnc32)cc1
  A = /; B = -2%; C = 12%; D = 57%

SMILES: Cc1ccc(N2C(=O)c3ccccc3C2Nc2ccc(S(=O)(=O)N3CCOCC3)cc2)nc1 (stereo unspecified)
  A = 9%; B = -22%; C = 14µM*; D = -14%

SMILES: Cc1nn(-c2ccccc2)c(/N=C/c2ccccc2O)c1-c1ccccc1
  A = ?; B = -60%; C = 13µM*; D = -12%

SMILES: Cc1nn(-c2ccccc2)c(N)c1-c1ccccc1
  A = 11%; B = -64%; C = ?; D = -9%

SMILES: Cc1cccc2c1OCC/C2=N\NC(=O)COc1ccccc1
  A = 6%; B = -58%; C = 11µM*; D = ?

SMILES: O=C(Cc1ccc(Br)cc1)N1CCCC1
  A = /; B = -13%; C = 45%; D = -16%

# Screening results from PubChem BioAssay.
